Reference: PubChem BioAssay AID1259398 (Fisher Drug Discovery Resource Center, 2018)
The list shows a part of the results, in another mix than the full data. Active and inactive are the calls of the source. No stated cut-off is given here; in the data, active means inhibition above about 40%; inactive means the rest.

Protein sequences, listed by entry. Tags and fused reporters are not part of them.
UniProt Q8N884, whole entry: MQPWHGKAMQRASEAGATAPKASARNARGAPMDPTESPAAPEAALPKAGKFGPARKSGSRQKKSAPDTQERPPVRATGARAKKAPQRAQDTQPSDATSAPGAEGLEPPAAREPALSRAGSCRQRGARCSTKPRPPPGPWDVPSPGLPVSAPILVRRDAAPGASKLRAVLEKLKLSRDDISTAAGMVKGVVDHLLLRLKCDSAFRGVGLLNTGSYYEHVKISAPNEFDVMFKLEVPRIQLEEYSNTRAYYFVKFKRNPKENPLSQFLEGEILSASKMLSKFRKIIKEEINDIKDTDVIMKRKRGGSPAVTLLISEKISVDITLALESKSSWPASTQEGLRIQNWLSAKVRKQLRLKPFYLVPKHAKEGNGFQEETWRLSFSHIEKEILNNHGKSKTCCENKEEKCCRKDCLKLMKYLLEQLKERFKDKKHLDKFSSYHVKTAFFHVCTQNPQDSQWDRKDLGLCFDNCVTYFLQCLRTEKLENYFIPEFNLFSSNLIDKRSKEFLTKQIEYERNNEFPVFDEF

Each molecule was assayed against Cyclic GMP-AMP synthase (Homo sapiens) (UniProt Q8N884) (assay: Biochemical Kinase-Glo luminescence primary assay, human cyclic GMP-AMP synthase inhibition (AID 1259398;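 further: 0% = vehicle reaction and 100% = reaction without DNA for no activity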)). Conditions: recombinant h-cGAS, ATP depletion, at 12.5 µM, stronger effect = higher value.
`CN(CCCl)CCCl` was tested, and the inhibition was inactive: 3.1%.
